Measured affinities in a library of Ab-14 heavy chain variants

All variants were tested on one target, the spike HR2 peptide PDVDLGDISGINAS (SARS-CoV-2).

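These sequences belong to a second round, designed from the earlier measurements on random variants of the parent. Group labels follow the data file (Ctrl: baseline library sampled from a position-specific scoring matrix, with some repeated check sequences; Rand: our label for a block that the file lists under HC and that is probably the random mutants of the ten best first-round binders; GP: Gaussian process model; GPLM: also part of the Gaussian process libraries; HC: hill climbing; Gen: genetic algorithm; Gibbs: Gibbs sampling; a sequence that several methods proposed may carry one label only). The scFvs were displayed on barcoded MATa yeast, the peptide on MATalpha yeast. Binding brings cells together so that they mate, and sequencing counts the barcode pairs among the diploids. Read counts were normalised to the haploid input and turned into Kd by a linear fit to BCL2-family pairs of known affinity, for each replicate. Mating was done six times.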

The variants keep the light chain, the linker and the frameworks of Ab-14 (scFv order VH, the linker GGGGSGGGGSGGGGS, VL).
VH: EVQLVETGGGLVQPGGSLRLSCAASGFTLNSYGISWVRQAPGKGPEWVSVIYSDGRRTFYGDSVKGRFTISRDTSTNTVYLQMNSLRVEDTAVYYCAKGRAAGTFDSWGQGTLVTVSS
VL: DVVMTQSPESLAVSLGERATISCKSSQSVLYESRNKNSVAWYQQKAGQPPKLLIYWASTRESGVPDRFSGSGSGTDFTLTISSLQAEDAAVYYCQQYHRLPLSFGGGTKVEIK

Positions count from residue 1 of the parent VH; F27E puts E in place of F.
Variants here have at most six changes.
Each Kd is an estimate from the mating assay, the geometric mean of the replicates in which the pair was seen; lower is stronger.
"nd" marks a missing value. The strain was present, yet no cells mated with the target were sequenced in any replicate, which points to weak or no binding.
Background: pairings of all heavy chain designs with three empty control strains gave a value in 1% of cases (median 120 nM, 5th percentile 7.0 nM). Values in that range, when seen in few replicates, are hard to tell from nonspecific mating.
Of ten entries with the parent sequence, four were seen in most replicates (averages 2.2 nM to 240 nM), three in one and three in none, so single entries are noisy.
The range of this assay differs from that of the first round, and the authors advise against merging the two.
Where one sequence has several entries in the source, the replicates are pooled.
The authors' rule: three or more of the six replicates give a measured affinity, fewer mean a poor binder.

The variant F27E+N30E+S31D+G61H [Ctrl] showed nd (0 of 6 replicates). The variant S31F+S53A+G55P+F105N+D106K [Rand] gave nd (0 of 6 replicates). For N30D+S31A+F105A+D106L [Rand], the assay gave nd (0 of 6 replicates). With T28S+S31M+G61H [GP_HC] the result was 11 nM (5 of 6 replicates). The variant G61S+T104Y [Ctrl] gave 190 nM (1 of 6 replicates). With T28D+A101I [Ctrl+GPLM_Gen] the result was 1.6 nM (12 of 12 replicates). For S31E+G61E+S63D+A101N [GP_HC], the assay gave 4.4 nM (6 of 6 replicates).

The variant R56I+A101N+A102I [Ctrl] gave nd (0 of 6 replicates). The variant T28S+R56K+S63N+A101T [GP_Gen] gave 1.7 nM (6 of 6 replicates). With F27E+I34V [Ctrl] the result was nd (0 of 6 replicates). With T28V+N30Q+G61N+R100K+D106R+S107D [Ctrl] the result was 38 nM (1 of 6 replicates). For T28S+D62N+R100N+A101F [Ctrl], the assay gave 27 nM (2 of 6 replicates). The variant T28Q+S31E+A101N+D106I [GP_HC] gave nd (0 of 6 replicates). For T28G+S31E+S53A+R100G [GP_HC], the assay gave 760 pM (6 of 6 replicates).

For G26Y+T28S+S31E+A101T+S107K [GP_Gen], the assay gave nd (0 of 6 replicates). With T28F+S31D+G61K+R100T [GP_HC] the result was 73 nM (5 of 6 replicates). With T28G+N30T+D62N+G99D [Ctrl] the result was nd (0 of 6 replicates). For S31E+G61A+A101E+S107V [GP_HC], the assay gave 350 pM (6 of 6 replicates). With S31E+F59M+G61T+A101T [GPLM_HC] the result was 3.1 nM (6 of 6 replicates). With T28D+S31T+G61D+R100Q [GP_Gibbs] the result was 450 pM (6 of 6 replicates). With T28E+S53A+R100K+S107L [GP_Gen] the result was 820 pM (6 of 6 replicates).

The variant T28E+R56L+G61T+A101T [GP_Gibbs] gave 2.9 nM (6 of 6 replicates). The variant T28E+G61I+R100D [GPLM_Gibbs] showed 26 nM (2 of 6 replicates). For T28D+G61I+R100S [GPLM_HC], the assay gave 1.7 nM (6 of 6 replicates). The variant G61Q+K65R [Ctrl] gave nd (0 of 6 replicates). The variant G26T+N30E+S53A [GP_HC] showed 16 nM (5 of 6 replicates). For S31E+G61D+A101L [GPLM_HC], the assay gave 2.1 nM (6 of 6 replicates). For F27N+S31E+G61T+A101H [GP_HC], the assay gave 29 nM (2 of 6 replicates).

With T28G+S31E+G61H+R100Q [GP_Gen] the result was 4.2 nM (6 of 6 replicates). With T28S+G61S+S63N+A101T [GP_Gen] the result was 1.1 nM (6 of 6 replicates). With G61H+A101E+S107T [GPLM_Gen] the result was 35 nM (6 of 6 replicates). The variant L29M+A101E [Ctrl] showed 15 nM (4 of 6 replicates). With G26K+T28Y+S31D+A101T [GP_Gibbs] the result was nd (0 of 6 replicates). The variant S31E+G61D+A101E [GP_HC] gave 560 pM (6 of 6 replicates). With S31E+R56M [Ctrl+GPLM_HC] the result was 20 nM (9 of 12 replicates).

The variant N30D+Y60M+D106T+S107D [Ctrl] showed 72 nM (1 of 6 replicates). For S31Q+Y60I+R100W+A101E+A102I+T104A [Ctrl], the assay gave nd (0 of 6 replicates). For S31M+K65S [Ctrl], the assay gave 46 nM (1 of 6 replicates). For T28N+S63R+A101Q [GP_Gen], the assay gave 14 nM (4 of 6 replicates). For S31N+D62N+R100T+S107L [Ctrl], the assay gave 20 nM (6 of 6 replicates). With T28H+G61A+R100K+A101E+S107T [GP_Gibbs] the result was 1.9 nM (6 of 6 replicates). The variant L29I+T58E+F59A+G61I+S107I [Ctrl] gave 1.1 µM (3 of 6 replicates).

With T28S+R100S+A101E [GPLM_Gen] the result was 1.2 nM (5 of 6 replicates). For T28E+R100W+A101V+S107L [GP_Gibbs], the assay gave 7.7 nM (3 of 6 replicates). With T28S+S31E+A101T [GPLM_Gen] the result was 630 pM (6 of 6 replicates). With T58C+G61A+S107H [Ctrl] the result was 190 nM (5 of 6 replicates). The variant T28W+S31D+G61V+A101Q [GPLM_Gibbs] showed 110 nM (4 of 6 replicates). With G26K+N30T+R56T+G61A+S107K [Ctrl] the result was 240 nM (1 of 6 replicates). With T28E+G61I+R100K+S107K [GP_Gen] the result was 14 nM (4 of 6 replicates).

For T28D+R100T+A101H+T104Q [Ctrl], the assay gave nd (0 of 6 replicates). With T28E+R100K+A101N+S107T [GPLM_Gibbs] the result was 9.5 nM (6 of 6 replicates). The variant S31E+G61T+A101F+D106V [GP_HC] gave nd (0 of 6 replicates).

A selection of 8 entries from above:

S31E+G61D+A101E [GP_HC]: 560 pM (6 of 6 replicates).
G26K+T28Y+S31D+A101T [GP_Gibbs]: nd (0 of 6 replicates).
G61S+T104Y [Ctrl]: 190 nM (1 of 6 replicates).
T28Q+S31E+A101N+D106I [GP_HC]: nd (0 of 6 replicates).
T28S+D62N+R100N+A101F [Ctrl]: 27 nM (2 of 6 replicates).
T28G+S31E+S53A+R100G [GP_HC]: 760 pM (6 of 6 replicates).
G61H+A101E+S107T [GPLM_Gen]: 35 nM (6 of 6 replicates).
T28N+S63R+A101Q [GP_Gen]: 14 nM (4 of 6 replicates).

From the AlphaSeq antibody data of Li et al. 2023 (doi:10.1038/s41467-023-39022-2), copy in the FLAb collection.